# Laboratory results reported in PubChem BioAssay AID743238 (Broad Institute, 2013).
# Only a part is listed here, and it is no random draw. Calls of active or inactive are those of the source.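 Rule for the calls: active = mean normalized replicate activation at least 10% and every replicate at or above 10%; inconclusive = only one of the two criteria met; inactive = mean below 10% and not all replicates reach 10%.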
# Assay: activators of inactive X chromosome reactivation, primary screen, imaging, XiGFP fibroblasts, GFP high-content imaging, set 2 (AID 743238);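 note: 0% = median of on-plate neutral control wells and 100% = ellipticine 6 µM median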
# Settings: XiGFP mouse fibroblasts, % GFP-positive cells imaging, 3 d; at 7.58 µM; active compounds read high; cells co-treated with 5-aza-dC sensitizer; scaled so ellipticine positive control = 100%
# How it was run: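 System: 68-5-11 XiGFP fibroblast line | Buffer or medium: DMEM containing 5-aza-dC | Compound: Single point | Times: Compounds 3 days, fix/stain 15 min at room temperature | Benchmarks: Positive control ellipticine, 6 µM final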
row,Structure (SMILES),activation
1,CN(C(=O)Cc1ccc(Cl)c(Cl)c1)[C@H]1CC[C@@]2(CCCO2)C[C@@H]1N1CCCC1,inactive: 0.174%
2,CN(C)C(=O)c1cc([N+](=O)[O-])cc2c1-c1c(cc([N+](=O)[O-])cc1[N+](=O)[O-])C2=O,inactive: -0.0615%
3,NC(=O)Nc1ccc([As](=O)(O)O)cc1,inactive: 0.0615%
4,O=C(O)COc1ccc([As](=O)(O)O)cc1[N+](=O)[O-],inactive: 0.091%
5,Nc1ccccc1[As](=O)(O)c1ccccc1,inactive: 0.309%
6,O=P(Nc1nccs1)(Oc1ccccc1)Oc1ccccc1,inactive: 0.02%
7,CN(C)C(=O)Oc1noc2ccccc12,inactive: 0.134%
8,O=c1c2cc([N+](=O)[O-])ccc2[nH]c2c([N+](=O)[O-])cc([N+](=O)[O-])cc12,inactive: 0%
9,Cc1ccccc1OP(=O)(Nc1ccccn1)Oc1ccccc1C,inactive: 0.099%
10,CC(NC(=O)COC(=O)C(O)(c1ccccc1)c1ccccc1)c1ccccc1 (stereo unspecified),inactive: 0.247%
11,O=C(OC1CN2CCC1CC2)c1ccccc1 (stereo unspecified),inactive: -0.047%
12,Cc1ccc(OP(=O)(Nc2ccccn2)Oc2ccc(C)cc2)cc1,inactive: 0%
13,CC(=O)NC(SC(=S)N(CC(C)C)CC(C)C)C(Cl)(Cl)Cl (stereo unspecified),inactive: 0.093%
14,O=P1(N(CCCl)CCCl)OCCC2CCCCN21 (stereo unspecified),inactive: -0.023%
15,Cc1ccc(NP(=O)(Oc2cccc(C)c2)Oc2cccc(C)c2)nc1,inactive: 0.027%
16,c1ccc(-c2nn[nH]n2)c(-c2nn[nH]n2)c1,inactive: 0%
17,O=C(NC1CCS(=O)(=O)C1)NP(=S)(Oc1ccccc1)Oc1ccccc1 (stereo unspecified),inactive: -0.015%
18,CCNC(=S)/N=C(\N)N[N+](=O)[O-],inactive: 0.131%
19,CC(=O)Nc1ccc(Oc2c([N+](=O)[O-])cc([N+](=O)[O-])cc2[N+](=O)[O-])cc1,inactive: -0.018%
20,CC(=O)Nc1ccc([As](=O)(O)O)c(O)c1,inactive: 0.114%
21,C[C@@H]1C=CCP(=O)(Oc2ccccc2)O1 (stereo partly specified),inactive: -0.281%
22,C[C@H]1OP(=O)(Oc2ccccc2)C[C@@H]2O[C@@H]21 (stereo partly specified),inactive: 0.143%
23,Cc1ccccc1CN(C)C(=O)COC(=O)C(O)(c1ccccc1)c1ccccc1,inactive: 0.051%
24,COC(=O)C1(C)COP(=O)(NCc2ccccc2)OC1 (stereo unspecified),inactive: 0.101%
25,N#C/C(=C\c1ccc(N(CCBr)CCBr)cc1)C(N)=O,inactive: 0.579%
26,CC(=O)c1ccc(N2CC2c2ccncc2)cc1 (stereo unspecified),inactive: 0.094%

row,Structure (SMILES),activation
1,CC(C)(C)C(=O)NC(Sc1ccccc1)C(Cl)(Cl)Cl (stereo unspecified),inactive: 0.0015%
2,CCc1cc(O)c([N+](=O)[O-])c(C)c1[N+](=O)[O-],inactive: 0.234%
3,CCOc1ccc(C2=NCC(CBr)S2)cc1 (stereo unspecified),inactive: 0.0275%
4,CC(C)C(=O)NC(Sc1ccccc1)C(Cl)(Cl)Cl (stereo unspecified),inactive: -0.0455%
5,Nc1ccc([As](=O)(O)c2ccc([N+](=O)[O-])cc2)cc1,inactive: -0.05%
6,C(Cc1nn[nH]n1)Cc1nn[nH]n1,inactive: -0.288%
7,C/C(N)=N\P(=O)(OCc1ccccc1)OCc1ccccc1,inactive: 0.557%
8,O=[As](O)(c1ccccc1)c1ccc(O)cc1,inactive: 0.22%
9,O=[N+]([O-])c1ncn(CCn2cnc([N+](=O)[O-])n2)n1,inactive: -0.0235%
10,CC(=O)NC(SC(=S)N(C)C)C(Cl)(Cl)Cl (stereo unspecified),inactive: 1.01%
11,C[C@H]1OP(=O)(Oc2ccccc2)[C@H](O)[C@H](O)[C@H]1N=[N+]=[N-] (stereo partly specified),inactive: 0.0305%
12,O=P(Nc1nc2ccccc2s1)(c1ccccc1)c1ccccc1,inactive: 0.039%
13,CN(C)C1(CNC(=O)c2ccc(Cl)c(S(N)(=O)=O)c2)CCCCC1,inactive: 0.0085%
14,O=P(Nc1ccccn1)(c1ccc(Br)cc1)c1ccc(Br)cc1,inactive: -0.0425%
15,Nc1ccc(CCCCOc2ccccc2)cc1,inactive: 0.121%
16,COc1ccc(N)c([N+](=O)[O-])c1[N+](=O)[O-],inactive: 0.0015%
17,O=C(O)CNc1ccc([As](=O)(O)O)cc1,inactive: -0.108%
18,O=[N+]([O-])c1cccc(NC2=NCC(CBr)S2)c1 (stereo unspecified),inactive: -0.104%
19,COC(=O)C1(C)COP(=O)(Nc2ccccc2)OC1 (stereo unspecified),inactive: 0.188%
20,O=[N+]([O-])c1ncn(CCn2ncnc2[N+](=O)[O-])n1,inactive: -0.155%
21,CC(C)(C)C(=O)NC(Sc1ccncn1)C(Cl)(Cl)Cl (stereo unspecified),inactive: -0.0285%
22,O=C(Nc1cc([As](=O)(O)O)ccc1O)c1ccccc1,inactive: -0.068%
23,O=P1(N(CCCl)CCCl)OCCCS1 (stereo unspecified),inactive: 0.084%
24,c1cc(-c2nn[nH]n2)ccc1-c1nn[nH]n1,inactive: 0%
25,CC(C)=N/N=C(\N)N[N+](=O)[O-],inactive: 0%
26,CC(C)c1nc(Nc2ccccc2)n(P(=O)(N(C)C)N(C)C)n1,inactive: -0.163%

row,Structure (SMILES),activation
1,CCN(/C(=N/P(=O)(N1CCOCC1)N1CCOCC1)N1CCOCC1)c1ccc(OC)cc1,inactive: -0.011%
2,C[N+]1=C2C=CC=CC=C2SC12C([N+](=O)[O-])=CC([N+](=O)[O-])=C[C-]2[N+](=O)[O-] (stereo unspecified),inactive: 1.1%
3,Nc1ccc([As](=O)(O)c2ccc(N)cc2)cc1,inactive: -0.0285%
4,O=[N+]([O-])c1cc([N+](=O)[O-])c(CCNc2ccccc2)c([N+](=O)[O-])c1,inactive: 1.1%
5,Cc1ccc(NP(=O)(Oc2ccccc2)Oc2ccccc2)nc1,inactive: -0.036%
6,COc1ccc(C2=NCC(CBr)S2)cc1 (stereo unspecified),inactive: 0%
7,O=C(NC(Sc1ccncn1)C(Cl)(Cl)Cl)c1ccccc1 (stereo unspecified),inactive: -0.0185%
8,Nc1cc(N)c2nonc2c1[N+](=O)[O-],inactive: -0.0565%
9,Clc1ccc(Cl)c(NC2=NCC(CBr)S2)c1 (stereo unspecified),inactive: 0%
10,Cc1ccc(OP(=O)(Nc2nccs2)Oc2ccc(C)cc2)cc1,inactive: -0.0885%
11,COc1ccccc1OP(=O)(Nc1ccc(C)cn1)Oc1ccccc1OC,inactive: 0%
12,Cc1ccc(N/C(=N/P(=O)(N2CCOCC2)N2CCOCC2)N2CCOCC2)cc1,inactive: -0.056%
13,CN(C(=O)Cc1ccc(Cl)c(Cl)c1)[C@H]1CCCC[C@H]1N1CCCC1,inactive: -0.0395%
14,NC(=O)c1cc([N+](=O)[O-])cc([N+](=O)[O-])c1N,inactive: 0.364%
15,Nc1cccc2ccc([As](=O)(O)O)cc12,inactive: -0.0175%
16,CCN(N=Nc1nonc1N)c1nonc1N,inactive: -0.123%
17,CN(C(=O)Cc1ccc(Cl)c(Cl)c1)[C@H]1CCCC[C@@H]1N1CCCC1,inactive: -0.005%
18,Cc1ccc(NP(=O)(Oc2ccccc2F)Oc2ccccc2F)nc1,inactive: 0.124%
19,Cc1cc(SC(NC(=O)c2ccc(F)cc2)C(Cl)(Cl)Cl)ncn1 (stereo unspecified),inactive: 0.144%
20,CN(C)P(=O)(N(C)C)n1c(Nc2ccccc2)nnc1-c1ccccc1,inactive: 0.191%
21,O=P(Nc1nc2ccc(Cl)cc2s1)(c1ccccc1)c1ccccc1,inactive: 0.325%
22,CCCC1OP(N)(=O)OCC1CC (stereo unspecified),inactive: 0.027%
23,O=C(O)c1ccccc1[As](=O)(O)O,inactive: 0.116%
24,CC(=O)Nc1ccc([As](=O)(O)O)cc1,inactive: 0.2%
